# Results from PubChem BioAssay AID1422 (Emory University Molecular Libraries Screening Center, 2008).
# The chains behind the UniProt entries cited, without tags or fusion partners.
# UniProt P43116, whole entry: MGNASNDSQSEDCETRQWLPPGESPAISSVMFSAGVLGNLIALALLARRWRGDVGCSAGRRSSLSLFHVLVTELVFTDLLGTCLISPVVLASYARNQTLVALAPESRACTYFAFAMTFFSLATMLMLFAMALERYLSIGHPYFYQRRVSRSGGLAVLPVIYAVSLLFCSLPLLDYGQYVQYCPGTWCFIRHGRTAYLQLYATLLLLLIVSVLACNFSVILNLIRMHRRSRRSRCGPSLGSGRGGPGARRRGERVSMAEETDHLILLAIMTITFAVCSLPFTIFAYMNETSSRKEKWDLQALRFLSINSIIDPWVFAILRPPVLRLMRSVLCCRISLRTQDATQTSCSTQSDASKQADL
# Only a part is listed here, and it is no random draw. Active and inactive are the calls of the source.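 Rule for the calls: active = percent inhibition above 40 after rounding to a whole number; inactive = the rest.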
# Molecular target: Prostaglandin E2 receptor EP2 subtype (Homo sapiens) (UniProt P43116)
# Experiment: blockers of PGE2-driven EP2 cAMP signalling – TR-FRET cAMP, C6 glioma cells, primary screen (AID 1422);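 note: rat C6 glioma host cells with rolipram phosphodiesterase inhibitor present; the protocol text gives 20 µM as final concentration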
# Details: C6 glioma cells expressing human EP2, cAMP TR-FRET; at 25 µM; active compounds read high; cells stimulated with saturating PGE2
row,SMILES,inhibition
1,CN(CCCl)CCCl,inactive: 14.4%
